Experimental findings from ChEMBL document CHEMBL3392954, “Discovery of novel indole derivatives as allosteric inhibitors of fructose-1,6-bisphosphatase” (Eur J Med Chem, 2015) are described below.

The target in this assay is T1, Fructose-1,6-bisphosphatase 1 (Homo sapiens) (UniProt P09467).
T1 sequence (whole entry): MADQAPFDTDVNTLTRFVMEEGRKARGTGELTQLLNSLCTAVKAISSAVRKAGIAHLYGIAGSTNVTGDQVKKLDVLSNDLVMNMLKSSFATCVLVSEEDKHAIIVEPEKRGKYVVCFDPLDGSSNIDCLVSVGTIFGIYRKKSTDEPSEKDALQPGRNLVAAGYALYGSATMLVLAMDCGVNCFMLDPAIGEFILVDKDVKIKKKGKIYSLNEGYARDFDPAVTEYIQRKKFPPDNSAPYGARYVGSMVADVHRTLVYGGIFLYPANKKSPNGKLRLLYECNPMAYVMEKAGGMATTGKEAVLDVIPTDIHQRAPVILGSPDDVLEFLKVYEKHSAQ
The settings on record: 50 uM.

Structures are written as SMILES.

One may read the inhibition as the relative decrease from the control value, in per cent. Low readings indicate a response near the control, high ones a response far below the control. With `O=C(O)CCc1c(C(=O)O)[nH]c2cc([N+](=O)[O-])ccc12`, the inhibition was determined as 79.5%.

`O=C(O)CCc1c(C(=O)O)[nH]c2cccc([N+](=O)[O-])c12` displayed an inhibition of 57.5%.
